{"source": "PubChem BioAssay AID623870", "about": "(Broad Institute, 2012)", "note": "This is a selection; strong and weak results do not stand in their true shares. Some results for these compounds are left out of this collection, so the calls shown say nothing about other tests. Calls of active or inactive are those of the source.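 Rule for the calls: active = mean inhibition of replicates at least 50% and at least half of replicates each reaching 50%; inconclusive = half or more replicates reach 50% but mean below 50%; inactive = the rest.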"}
{"target": "Transforming acidic coiled-coil-containing protein 3 (Homo sapiens) (UniProt Q9Y6A5)", "assay": "disruptors of ARNT/TACC3 protein interaction, primary screen, biochemical, AlphaScreen, single concentration (AID 623870);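 note: 0% = complete ARNT plus TACC3 wells and 100% = ARNT alone without TACC3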", "settings": "AlphaScreen His-ARNT PAS-B/GST-TACC3 binding, luminescence; at 9.99 µM; active compounds read high; TACC3 fragment carries E629A point mutation"}
{"compound": "CN(C)C1(CNC(=O)c2ccc(Br)cc2)CCCCC1", "inhibition": "inactive: -5.24%"}
{"compound": "COc1cc(C(=O)NCC2(N(C)C)CCCCC2)c([N+](=O)[O-])cc1OC", "inhibition": "inactive: -0.232%"}
{"compound": "COc1ccc(Cl)cc1C(=O)NCC1(N(C)C)CCCCC1", "inhibition": "inactive: -0.893%"}
{"compound": "COc1cccc(C(=O)NCC2(N3CCCCC3)CCCCC2)c1", "inhibition": "inactive: -10.8%"}
{"compound": "O=C(NCC1(N2CCCCC2)CCCCC1)c1cccc(Cl)c1", "inhibition": "inactive: 0.172%"}
{"compound": "O=C(OC1CN2CCC1CC2)C(CO)(c1ccccc1)c1ccccc1", "note": "(centres undefined)", "inhibition": "inactive: 5.41%"}
{"compound": "COc1ccc(Br)c(C(=O)NCC2(N3CCCCC3)CCCCC2)c1", "inhibition": "inactive: 3.69%"}
{"compound": "O=C(OCCN1CCCC1)C(O)(c1ccccc1)c1ccccc1", "inhibition": "inactive: -0.337%"}
{"compound": "CC(C)Oc1ccc(C(=O)NCC2(N(C)C)CCCCC2)cc1", "inhibition": "inactive: 0.556%"}
{"compound": "CN(C)c1cccc(C(=O)NCC2(N(C)C)CCCCC2)c1", "inhibition": "inactive: -1.67%"}
{"compound": "O=C(NCC1(N2CCCCC2)CCCCC1)c1cc([N+](=O)[O-])ccc1Cl", "inhibition": "inactive: 2.22%"}
{"compound": "CN1[C@@H]2CC[C@H]1CC(OC(=O)C(O)(c1ccccc1)c1ccccc1)C2", "note": "(some centres undefined)", "inhibition": "inactive: -9.85%"}
{"compound": "COc1cc(SC)ccc1C(=O)NCC1(N(C)C)CCCCC1", "inhibition": "inactive: -5.63%"}
{"compound": "CCN(CC)CC(C)C(C)OC(=O)C(O)(c1ccccc1)c1ccccc1", "note": "(centres undefined)", "inhibition": "inactive: -1.56%"}
{"compound": "CC(C)N1C(=O)CC2(CCN(CCOC(=O)C(O)(c3ccccc3)c3ccccc3)CC2)C1=O", "inhibition": "inactive: -5.23%"}
{"compound": "CN(C)c1ccc(C(=O)NCC2(N(C)C)CCCCC2)cc1", "inhibition": "inactive: -3.49%"}
{"compound": "CN(C)C1CCCC1OC(=O)C(O)(c1ccccc1)c1ccccc1", "note": "(centres undefined)", "inhibition": "inactive: -8.29%"}
{"compound": "Cc1ccccc1C(=O)NCC1(N2CCCCC2)CCCCC1", "inhibition": "inactive: -2.88%"}
{"compound": "O=C(NCC1(N2CCCCC2)CCCCC1)c1cc(F)c(F)cc1Cl", "inhibition": "inactive: 0.936%"}
{"compound": "C=CCN1CCN(CCOC(=O)C(O)(c2ccccc2)c2ccccc2)CC1", "inhibition": "inactive: -4.61%"}
{"compound": "COc1ccc(C(=O)NCC2(N(C)C)CCCCC2)cc1", "inhibition": "inactive: 1.33%"}
{"compound": "O=C(NCC1(N2CCCCC2)CCCCC1)c1cccc(Br)c1", "inhibition": "inactive: -3.08%"}
{"compound": "CCN1CCCC(OC(=O)C2(O)c3ccccc3C=Cc3ccccc32)C1", "note": "(centres undefined)", "inhibition": "inactive: -0.741%"}
{"compound": "Cc1cc(C(=O)NCC2(N3CCCCC3)CCCCC2)ccc1[N+](=O)[O-]", "inhibition": "inactive: -8.28%"}
